# High-throughput results as filed in PubChem BioAssay.
# Nrf2 ARE act: activates Nrf2 signaling. Potency, µM (top dose mostly 46.1 µM), inactives show top-dose activation, actives largely listed as activators. AREc32 ARE-luciferase reporter (MCF7-derived line), luminescence, 24 h. 0.31% of 410,000 active; note: potency is the fitted concentration of half-maximal effect; % of control where 0% means no effect; nearly all actives have a fitted effect of over 65% in size
#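 Reporter line AREc32 (ARE-Fluc), seeded overnight in OPTI-MEM with 5% FBS; compound pin-transferred, 24 hr at 37 deg C, 5% CO2; luminescent read-out.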
# miR-21 FLuc: raises the signal of a miR-21 reporter; 340,000 tested, under 10 active; HeLa miR-21 FLuc reporter, luciferase, 48 h; Potency, µM (series often up to 38.3 µM), for inactives: at the highest dose reporter change, positive = more light; active = well fitted rising curve with a large enough effect; inconclusive = small, poorly fitted or top-dose-only effect; inactive = no such curve, though single readings can be large or run the other way;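 further: % of control where 0% means no effect; miR-21 action dims this reporter so a rising signal means less miR-21 action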
#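 HeLa cells endogenously expressing miR-21, stably carrying CMV-driven firefly luciferase with a downstream miR-21 binding site, 2000 cells/well. Titrations up to approximately 40 uM, 48 hours; luciferase luminescence read.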
# p53 reactivator: mutant p53 re-activation in reporter cells; 0.063% of 320,000 active; Potency, µM (highest dose often 92.2 µM), inactives show at the top dose activity change, positive = activation, most hits filed as activators; H1299 p53-A138V BP100-luciferase reporter, luminescence, 24 h; note: potency is the fitted concentration of half-maximal effect; % of control where 0% means no effect; nearly all actives have a fitted effect of over 45% in size
#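 p53-null H1299 cells stably carrying temperature-sensitive p53-A138V and a BP100-luciferase reporter were pinned with compounds (4-point, 1:5 series) and held 24 hrs at 37 deg C. Luminescence was read 10 min after detection reagent.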
# Nrf2 block: Nrf2 pathway inhibition | Potency, µM (titrated, usually from 46 µM), for the others: at the top dose activity change, negative = inhibition, usual class: inhibitors | A549 ARE-Fluc reporter, luciferase luminescence, 18-24 h | 2.1% of 360,000 active; note: potency is the fitted concentration of half-maximal effect; % is set by controls: 0 for no effect and ±100 for the full control effect; nearly all actives have a fitted effect of over 60% in size
#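 Reporter: ARE-Fluc in A549. Exposure: 18-24 h, 37 °C, 5% CO2, 5% FBS OPTI-MEM. Readouts: fluorescent cytotoxicity (CellTiter-Fluor), then luminescent Nrf2 signal after BugLite.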
# ClpP mod: qHTS Assay for Activators of ClpP; ATP-dependent Clp protease proteolytic subunit (Bacillus subtilis (strain 168)), P80244; purified B. subtilis ClpP, FRET peptide cleavage, 20 min; Potency, µM (doses to about 57.5 µM), for inactives: top-dose activity change, negative = active; 1.9% of 340,000 active; active = well fitted falling curve with a large enough effect; inconclusive = small, poorly fitted or top-dose-only effect; inactive = no such curve, though single readings can be large or run the other way; note: potency is the fitted concentration of half-maximal effect; the source files actives as falling curves though it sought activators and does not explain the sign; nearly all actives have a fitted effect of over 65% in size
#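 FRET quenching reversal measured ClpP activation: 10 microg/mL B. subtilis ClpP at pH 8 with the FRET-FV decapeptide, read at 430 nm after 320 nm excitation. The 20-min minus 0-min signal was scaled between DMSO/no-enzyme wells and ADEP (5.8 microM final).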
# A549 tox: counter-screen for Nrf2 inhibitors: cytotoxicity in A549 cells | 0.16% of 390,000 active | AID 504648 | Potency, µM (top dose mostly 46 µM), inactives show at the top dose activity change, negative = cytotoxicity, most hits filed as inhibitors | A549 ARE-Fluc cells, CellTiter-Fluor viability, 18-24 h; note: potency is the fitted concentration of half-maximal effect; % is set by controls: 0 for no effect and ±100 for the full control effect
#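 A549 ARE_Fluc cells in 5% FBS OPTI-MEM were exposed to compounds in concentration-response for 18-24 h at 37 deg C. Viability was read by CellTiter-Fluor fluorescence (Ex 405/Em 525) after 30 min, before the luciferase read.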
# Numbers without * were called inactive; u = inconclusive; x = no result. An excerpt weighted towards active compounds, which were near 3.7% of everything screened. Unless noted, calls come from the whole dose curve; as a rule, active = well fitted curve in the direction sought with a large enough effect; inconclusive = small, poorly fitted or top-dose-only effect, or another doubt; inactive = no such curve, though single readings can be large; an effect the other way counts as inactive or inconclusive.
# Short keys – A = Nrf2 ARE act; B = miR-21 FLuc; C = p53 reactivator; D = Nrf2 block; E = ClpP mod; F = A549 tox
1. Cn1c(=O)c2cn(Cc3ccc(Cl)cc3)cc2n(C)c1=O
  A = 0.0% | B = 0.4% | C = -10.5% | D = 11.6µM* | E = 1.5% | F = 15.5%

2. Cn1c(=O)c2c(-c3ccc(Cl)cc3)n(Cc3ccccc3)cc2n(C)c1=O
  A = -0.4% | B = 3.6% | C = x | D = u | E = 3.9% | F = -16.6%

3. Cc1ccc(C)c(NS(=O)(=O)c2ccc3c4c(cccc24)C(=O)N3)c1
  A = -5.0% | B = u | C = x | D = 18.4µM* | E = -6.8% | F = -2.3%

4. O=C1Nc2ccc(S(=O)(=O)Nc3ccccc3O)c3cccc1c23
  A = 9.8% | B = -0.9% | C = x | D = 16.8% | E = -0.1% | F = -1.9%

5. Cc1ccc2c(c1)c1c(c(=O)n(Cc3ccccc3)c(=O)n1Cc1cccc(C(F)(F)F)c1)n2C
  A = -0.4% | B = -1.1% | C = x | D = 7.2% | E = 4.0% | F = 1.6%

6. Cc1ccc(CNS(=O)(=O)c2ccc3c(c2)n(C)c(=O)n3C)cc1
  A = 0.6% | B = 7.0% | C = -0.1% | D = 20.6µM* | E = x | F = -1.9%

7. Cc1cc(S(=O)(=O)Nc2cc3c(cc2NCc2ccccc2)n(C)c(=O)n3C)ccc1F
  A = 12.6µM* | B = -40.3% | C = x | D = u | E = 4.4% | F = 1.1%

8. CCNS(=O)(=O)c1ccc2c(c1)n(C)c(=O)n2C
  A = -0.4% | B = -0.6% | C = -6.2% | D = -29.2% | E = -0.6% | F = -3.9%

9. Cn1c(=O)n(C)c2cc(NS(=O)(=O)c3ccc(Cl)cc3)c(NCc3ccccc3)cc21
  A = u | B = -65.0% | C = x | D = u | E = 4.2% | F = -8.6%

10. Cn1c(=O)n(C)c2cc(NS(=O)(=O)c3ccccc3)c(NCc3ccccc3)cc21
  A = 12.6µM* | B = -11.3% | C = x | D = u | E = u | F = 2.1%

11. COc1ccc(Cl)cc1S(=O)(=O)N1CCN(S(=O)(=O)c2ccc3c(c2)OCCO3)CC1
  A = x | B = x | C = x | D = u | E = x | F = -0.3%

12. Cc1c(C(=O)Nc2ccc(F)cc2)oc2ccc(S(=O)(=O)N3CC(C)CC(C)C3)cc12 (stereo not given)
  A = -0.5% | B = 15.4% | C = -2.2% | D = 7.31µM* | E = 281.7% | F = -15.2%

13. Cc1c(C(=O)NCc2cccnc2)oc2ccc(S(=O)(=O)N3CC(C)CC(C)C3)cc12 (stereo not given)
  A = 0.3% | B = -4.4% | C = -0.8% | D = -4.8% | E = -0.2% | F = 0.4%

14. O=C(Nc1ccc(CN2CCOCC2)cc1)c1ccc(Cl)cc1
  A = 4.4% | B = -25.8% | C = u | D = u | E = -0.1% | F = -18.4%

15. CN(C)S(=O)(=O)c1ccc(C(=O)Nc2nnc(SCC(=O)N3CCOCC3)s2)cc1
  A = 0.1% | B = x | C = x | D = x | E = -1.4% | F = x

16. CC(C)Oc1ccc(C(=O)Nc2nnc(SCC(=O)N3CCOCC3)s2)cc1
  A = -1.6% | B = 15.8% | C = 47.6% | D = 5.17µM* | E = -0.1% | F = -2.8%

17. COC(=O)c1ccc(NC(=O)c2ccc(CN3CCOCC3)cc2)cc1
  A = 0.1% | B = 3.2% | C = 7.4% | D = 9.2µM* | E = -1.3% | F = -5.2%

18. O=C(Nc1ccc(S(=O)(=O)Nc2ccccc2)cc1)c1ccc(CN2CCOCC2)cc1
  A = 0.3% | B = u | C = -1.1% | D = 4.11µM* | E = 0.3% | F = -4.5%

19. CCC(C)Oc1ccc(C(=O)Nc2ccc(CN3CCOCC3)cc2)cc1 (stereo not given)
  A = 0.2% | B = 28.2% | C = 6.4% | D = 23.1µM* | E = 1.6% | F = -19.7%

20. Cc1ccc(C)c(NC(=O)C(CC(C)C)N2Cc3ccccc3C2=O)c1 (stereo not given)
  A = 0.8% | B = -7.0% | C = x | D = u | E = 0.4% | F = 12.1%

21. CCN(c1ccccc1)S(=O)(=O)c1c(-c2ccc(C)cc2)csc1C(=O)OC
  A = 4.6% | B = 20.7% | C = x | D = u | E = -2.0% | F = 2.9%

22. COc1cc2nc(Cl)nc(NC(C)C)c2cc1OC
  A = x | B = x | C = x | D = x | E = -15.4% | F = x

23. N#Cc1c(NC(=O)c2cc(-n3cnnc3)ccc2Cl)sc2c1CCCC2
  A = 11.4% | B = 6.6% | C = 1.6% | D = 23.1µM* | E = -3.1% | F = -18.4%

24. O=C(Nc1ccc2nc(SCC(=O)N3CCCC3)sc2c1)c1cccc(Br)c1
  A = 5.0% | B = u | C = x | D = 18.4µM* | E = u | F = -27.3%

25. O=C(Nc1ccc2nc(SCC(=O)N3CCc4ccccc43)sc2c1)c1cccc(Cl)c1
  A = 0.5% | B = -7.6% | C = x | D = 0.9% | E = u | F = -7.3%

26. Cc1ccccc1OCC(=O)Nc1ccc2nc(SCC(=O)N3CCCC3)sc2c1
  A = 6.2% | B = 6.5% | C = x | D = 18.4µM* | E = -0.3% | F = -22.3%

27. O=C(Nc1ccc2nc(SCC(=O)N3CCCC3)sc2c1)c1ccc(Br)cc1
  A = 2.9% | B = -3.2% | C = x | D = -7.9% | E = 0.4% | F = 0.0%

28. COCCN(CCOC)C(=O)c1ccc(CSc2nc3ccccc3s2)cc1
  A = 5.5% | B = -12.0% | C = 1.5% | D = 13µM* | E = -1.3% | F = -16.8%

29. O=C(Nc1ccc2nc(SCC(=O)N3CCCc4ccccc43)sc2c1)c1cccc(Cl)c1
  A = 4.1% | B = 13.4% | C = x | D = -22.7% | E = 14.1µM* | F = 3.1%

30. CCOCCc1nnc(NC(=O)C(=O)c2cc(C)n(-c3ccc(C)cc3C)c2C)s1
  A = 3.2% | B = 9.5% | C = x | D = 10.9% | E = 0.2% | F = -1.6%

31. Cc1nc2ccn(Cc3ccco3)c(=O)c2cc1C(=O)NCc1ccccc1
  A = 21.3% | B = 16.9% | C = x | D = 13.0% | E = 4.4% | F = 8.3%

32. Cn1c(CN2CCCCC2)nc2cc(NC(=O)c3cccc(Br)c3)ccc21
  A = -0.6% | B = 18.5% | C = 4.3% | D = 1.3µM* | E = -3.8% | F = -16.5%

33. COc1ccc(C(=O)Nc2ccc3nc(SCc4ccc(C)cc4)sc3c2)cc1
  A = 0.1% | B = 1.8% | C = x | D = -23.6% | E = 25.1µM* | F = -8.2%

34. O=C(Nc1ccc2nc(SCC(=O)N3CCOCC3)sc2c1)c1cccc(Cl)c1
  A = -0.2% | B = u | C = x | D = 23.1µM* | E = -0.7% | F = u

35. CN(C(=O)CSc1nc2ccc(NC(=O)c3ccccc3F)cc2s1)c1ccccc1
  A = -0.9% | B = -13.0% | C = x | D = u | E = -24.8% | F = u

36. COc1cccc(C(=O)Nc2ccc3nc(SCc4ccc(C)cc4)sc3c2)c1
  A = 0.8% | B = 20.4% | C = x | D = u | E = u | F = -14.5%

37. CN(C(=O)CSc1nc2ccc(NC(=O)c3cccc(F)c3)cc2s1)c1ccccc1
  A = 0.3% | B = u | C = x | D = 20.6µM* | E = u | F = -7.3%

38. O=C(CNC(=O)c1ccccc1)OC(C(=O)O)c1ccc(F)cc1 (stereo not given)
  A = 0.3% | B = x | C = x | D = x | E = -3.3% | F = x

39. CN(C)c1ccc(C=O)cc1Cl
  A = x | B = x | C = x | D = x | E = 0.4% | F = x

40. COc1ccc(C)cc1NC(=O)C1CCCN(S(=O)(=O)c2ccc3c(c2)oc(=O)n3C)C1 (stereo not given)
  A = 0.2% | B = 1.2% | C = x | D = u | E = 0.5% | F = -3.4%

41. CCN(C(=O)CSc1nnc(-c2cccs2)n1N)c1c(N)n(Cc2ccccc2)c(=O)[nH]c1=O
  A = 0.5% | B = x | C = 0.5% | D = 6.9% | E = 35.5µM* | F = -2.7%

42. COc1ccc(NC(=O)COC(=O)c2c3c(nc4ccccc24)CCCC3)cc1Cl
  A = -0.8% | B = 24.0% | C = 7.5% | D = 23.1µM* | E = 3.0% | F = u

43. COc1ccc(NC(=O)COC(=O)c2c3c(nc4ccccc24)CCCC3)cc1
  A = -1.0% | B = u | C = -3.2% | D = u | E = -5.2% | F = -10.7%

44. COc1ccc(-c2nc3c(C#N)c[nH]n3c2NC2CCCCC2)cc1
  A = 6.8% | B = 3.2% | C = x | D = 25.8% | E = 1.7% | F = -1.2%

# At a glance, some entries already given.
# Short keys – A = Nrf2 ARE act; B = miR-21 FLuc; C = p53 reactivator; D = Nrf2 block; E = ClpP mod; F = A549 tox
42. COc1ccc(NC(=O)COC(=O)c2c3c(nc4ccccc24)CCCC3)cc1Cl
  A = -0.8% | B = 24.0% | C = 7.5% | D = 23.1µM* | E = 3.0% | F = u

43. COc1ccc(NC(=O)COC(=O)c2c3c(nc4ccccc24)CCCC3)cc1
  A = -1.0% | B = u | C = -3.2% | D = u | E = -5.2% | F = -10.7%

44. COc1ccc(-c2nc3c(C#N)c[nH]n3c2NC2CCCCC2)cc1
  A = 6.8% | B = 3.2% | C = x | D = 25.8% | E = 1.7% | F = -1.2%
